Data on six compounds can be found in patent US8927715B2, “Inhibitors of 11β-hydroxysteroid dehydrogenase type 1” (Vitae Pharmaceuticals, Inc., priority 2006, dated 2015).

Chains of the proteins cited; added tags and fusions are not shown.
UniProt P28845, whole entry: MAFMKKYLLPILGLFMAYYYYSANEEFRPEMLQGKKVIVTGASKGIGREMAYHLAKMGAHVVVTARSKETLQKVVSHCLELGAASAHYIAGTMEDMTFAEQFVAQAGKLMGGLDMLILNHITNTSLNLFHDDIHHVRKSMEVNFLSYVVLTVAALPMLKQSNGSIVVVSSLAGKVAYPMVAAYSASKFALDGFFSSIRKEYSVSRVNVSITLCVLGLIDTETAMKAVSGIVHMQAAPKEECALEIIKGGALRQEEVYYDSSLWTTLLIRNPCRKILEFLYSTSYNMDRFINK

In assay [1] the target is T1, human 11β-HSD1 (Homo sapiens, UniProt P28845). The assay can be described thus: Inhibition of a microsomal preparation of 11β-HSD1, SPA (Biological Test Example 2). It counts as biochemical. The following applies: read-out: Biological Test Example 2 (IC50 class).
Assay [2] concerns the target T1, human 11β-HSD1. Put plainly: Scintillation Proximity Assay: inhibition of purified 11β-HSD1 (Biological Test Example 1). The settings on record: read-out: Biological Test Example 1 (IC50 class); purified recombinant 11β-HSD1, SPA. In general terms: In a scintillation proximity assay essentially only radioactivity close to the scintillant gives light.

One may read the IC50 as the midpoint of a concentration-inhibition curve. On to `CCOC(=O)C=C1CC2(CCN(C(=O)NC3C4CC5CC(C4)CC3C5)CC2)c2c(Br)cccc21` (single isomer, unassigned), for which the IC50 on human 11β-HSD1 [1] is less than 50 nM.

For `CNCCN(C)C(=O)CC1CC2(CCN(C(=O)NC3C4CC5CC(C4)CC3C5)CC2)c2c(Br)cccc21` (single isomer, unassigned), at human 11β-HSD1 [1], the IC50 is less than 50 nM.

Regarding `COC(=O)CC1CC2(CCN(C(=O)NC3C4CC5CC(C4)CC3C5)CC2)c2ccccc21` (single isomer, unassigned), the IC50 at human 11β-HSD1 [2] is less than 50 nM.

As for `O=C(O)CC1CC2(CCN(C(=O)NC3C4CC5CC(C4)CC3C5)CC2)c2c(Br)cccc21` (single isomer, unassigned), at human 11β-HSD1 [1], the IC50 was less than 50 nM.

Regarding `O=C(O)CC1CC2(CCN(C(=O)NC3C4CC5CC3CC(F)(C5)C4)CC2)c2c(Br)cccc21` (single isomer, unassigned), on human 11β-HSD1 [1], the IC50 was less than 50 nM.

Turning to `O=C(O)CC1CC2(CCN(C(=O)OC3C4CC5CC(C4)CC3C5)CC2)c2c(Br)cccc21` (single isomer, unassigned), the IC50 at human 11β-HSD1 [1] was less than 50 nM.
